Test results taken from US9284317B2, “Substituted imidazo[1,2-a]pyrazines as MPS-1 inhibitors” (Bayer Intellectual Property GmbH, priority 2010, dated 2016).

Protein sequences, listed by entry. Tags and fused reporters are not part of them. Lines headed by an entry give the natural chain unless they say otherwise; changes in a name come on top.
UniProt P33981: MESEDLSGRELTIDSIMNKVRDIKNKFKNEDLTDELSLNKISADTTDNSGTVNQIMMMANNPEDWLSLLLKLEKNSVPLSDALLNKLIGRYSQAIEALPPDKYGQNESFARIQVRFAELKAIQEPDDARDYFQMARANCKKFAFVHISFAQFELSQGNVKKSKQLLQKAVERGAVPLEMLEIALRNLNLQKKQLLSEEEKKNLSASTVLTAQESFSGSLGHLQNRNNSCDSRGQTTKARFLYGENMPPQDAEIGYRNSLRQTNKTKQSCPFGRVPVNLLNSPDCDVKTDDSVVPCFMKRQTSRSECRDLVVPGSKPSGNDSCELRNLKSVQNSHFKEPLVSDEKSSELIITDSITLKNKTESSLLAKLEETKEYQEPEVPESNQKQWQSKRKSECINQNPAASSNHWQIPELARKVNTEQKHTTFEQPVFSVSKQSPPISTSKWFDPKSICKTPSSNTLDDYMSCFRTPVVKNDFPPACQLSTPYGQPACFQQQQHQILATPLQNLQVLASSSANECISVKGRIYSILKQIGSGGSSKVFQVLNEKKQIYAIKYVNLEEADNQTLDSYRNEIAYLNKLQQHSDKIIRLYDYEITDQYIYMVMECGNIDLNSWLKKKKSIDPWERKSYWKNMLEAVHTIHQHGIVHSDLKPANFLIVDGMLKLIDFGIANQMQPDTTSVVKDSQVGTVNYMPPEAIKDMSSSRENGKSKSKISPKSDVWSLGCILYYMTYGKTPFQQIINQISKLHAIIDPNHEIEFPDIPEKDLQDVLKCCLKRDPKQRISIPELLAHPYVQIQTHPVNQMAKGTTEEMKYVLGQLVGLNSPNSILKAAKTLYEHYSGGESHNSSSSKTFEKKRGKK

Target: human kinase Mps-1 (N-terminally GST-tagged human full length recombinant Mps-1 kinase) (Homo sapiens (Human), UniProt P33981)
Test: Mps-1 Kinase Assay (TR-FRET)
Assay type: biochemical
Details: 10 μM ATP, 1 μM biotinylated peptide substrate, 60 min at 22° C., read-out: Mps1 IC50
Protocol: The human kinase Mps-1 phosphorylates a biotinylated substrate peptide. Detection of the phosphorylated product is achieved by time-resolved fluorescence resonance energy transfer (TR-FRET) from Europium-labelled anti-phospho-Serine/Threonine antibody as donor to streptavidin labelled with cross-linked allophycocyanin (SA-XLent) as acceptor. Compounds are tested for their inhibition of the kinase activity.
N-terminally GST-tagged human full length recombinant Mps-1 kinase (purchased from Invitrogen, Karslruhe, Germany, cat. no PV4071) was used. As substrate for the kinase reaction a biotinylated peptide of the amino-acid sequence […] (C-terminus in amide form, purchased from Biosynthan GmbH, Berlin) was used.
The concentration of Mps-1 in the assay was adjusted to the activity of the enzyme lot and was chosen appropriate to have the assay in the linear range, typical enzyme concentrations were in the range of about 1 nM (final conc. in the 5 μl assay volume).
The resulting mixture was incubated 1 h at 22° C. to allow the binding of the phosphorylated peptide to the anti-phospho(Ser/Thr)-Europium-antibody. Subsequently the amount of phosphorylated substrate was evaluated by measurement of the resonance energy transfer from the Europium-labelled anti-phospho(Ser/Thr) antibody to the Streptavidin-XLent.

Work on `CC(C)CNc1nc(-c2ccc([S+]([O-])C3CC3)cc2)cn2c(-c3ccc(C(=O)NC4CC4)cc3)cnc12` (racemic) [Example 3-1, (RS) N-cyclopropyl-4-{6-[4-(cyclopropylsulfinyl)phenyl]-8-(isobutylamino)imidazo[1,2-a]pyrazin-3-yl}benzamide] yielded an IC50 of 1 nM.
